Consider 1 compound from publication PMC12480751, “A quantitative high-throughput screening pipeline to identify small molecule inhibitors of Chikungunya nsP2 protease” (Scientific Reports, 2025).

The CC50 is the concentration that lowers cell viability or growth by half.

In the data set the test system is SNB19 cells. As to the kind of experiment: CellTiter-Glo cell viability assay of SNB19 cells. The format is cell-based, human. Particulars: read-out: CC50, SNB19 viability, 48 h. (In general: Cellular ATP, detected with luciferase, serves as a proxy for viable cell number.)

On to `Oc1ccc(CNc2ccccc2F)c2cccnc12`, for which the CC50 is 440 nM.
